Laboratory results published in ChEMBL document CHEMBL1165848, “Discovery of new cholesteryl ester transfer protein inhibitors via ligand-based pharmacophore modeling and QSAR analysis followed by synthetic exploration” (Eur J Med Chem, 2010).

Molecular target: T1, Cholesteryl ester transfer protein (Oryctolagus cuniculus, UniProt P22687)
T1 sequence (P22687 whole entry): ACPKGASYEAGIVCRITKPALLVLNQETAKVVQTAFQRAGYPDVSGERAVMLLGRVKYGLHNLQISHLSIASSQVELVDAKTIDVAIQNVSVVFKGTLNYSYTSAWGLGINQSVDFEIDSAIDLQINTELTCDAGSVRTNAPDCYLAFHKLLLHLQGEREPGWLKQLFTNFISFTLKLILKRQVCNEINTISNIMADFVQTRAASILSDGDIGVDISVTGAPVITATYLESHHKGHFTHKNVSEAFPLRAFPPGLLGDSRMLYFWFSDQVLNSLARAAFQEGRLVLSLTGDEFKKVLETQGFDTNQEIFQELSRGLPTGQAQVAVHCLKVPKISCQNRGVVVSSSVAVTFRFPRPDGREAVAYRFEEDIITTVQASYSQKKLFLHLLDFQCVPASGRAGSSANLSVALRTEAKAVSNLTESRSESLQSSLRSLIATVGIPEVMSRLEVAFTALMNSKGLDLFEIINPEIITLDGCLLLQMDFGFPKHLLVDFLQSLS
Assay: Inhibition of CETP in rabbit serum after 1 hr by fluorescent cholesteryl esters transfer assay

IC50: 6.79 µM
SMILES: Cn1cccc1-c1cccc(CN(CC(O)C(F)(F)F)c2cccc(Oc3ccccc3)c2)c1 (stereo unspecified)
